For the experiment, the target named is T1, Bcl-xL (Homo sapiens, UniProt Q07817, DEL27-82).
T1 construct: one containing the fragment 1-26, and the other the fragment 81-209; 6His (N, cleaved yes); made in house; host or cells: Escherichia coli BL21 (DE3) pRARE2
Kind of experiment: Isothermal Titration Calorimetry, peptides and Bcl-xL. Type of experiment: binding. The following applies: ITC, 30 °C. The method, then: In red, the conserved hydrophobic residues of the BH3 domain (named h1 (P1), h2 (P2), h3 (P3) and h4 (P4)). In green, the GD signature of BH3 domains. In blue, the conserved charged residues. […] Each experiment was carried out at 30 °C in 50 mM ammonium bicarbonate pH 9.
Titrations were done by isothermal titration calorimetry (ITC) assays using an ITC200 calorimeter from GE-Microcal. See Supplementary Information for full details. […]
hybrid-FLAG peptides, rabbit anti-FLAG (Sigma) and anti-rabbit-FITC (Abcam) were used.
Isothermal Titration Calorimetry experiments
Titrations were done by isothermal titration calorimetry (ITC) assays using an ITC200 calorimeter from GE-Microcal. Bcl-xL was used at 0.065 mM in 50mM bicarbonate ammonium […]
pH 9. […] Titrations were carried out at 30°C. Data were analyzed using Microcal Origin software provided by the ITC manufacturer (GE-Microcal).
High-throughput crystallization screening was performed using a Mosquito liquid transfer robot (TTP Labtech) and the sitting-drop vapor diffusion method. Crystals were obtained at 20°C by mixing 0.2μL of reservoir solution (100mM Pipes pH 7, 1.5M Tris-sodium citrate) with 0.2μL of […]
ammonium bicarbonate pH 9.3 and by equilibrating the mixture against 40μl of reservoir

Sequences of proteins named here, by UniProt entry; tags and fusion partners are left off. A line that says so, or that is headed by a name, gives the form on record, which may keep a tag or linker.
UniProt Q07817, with tags, fused parts or gaps DEL27-82: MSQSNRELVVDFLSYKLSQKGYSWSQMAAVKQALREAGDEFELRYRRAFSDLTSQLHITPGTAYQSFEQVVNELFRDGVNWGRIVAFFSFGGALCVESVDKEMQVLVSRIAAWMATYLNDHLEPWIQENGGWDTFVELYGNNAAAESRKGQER

Read-outs that look alike come from different tables or passages of the source.

With `CC[C@H](C)[C@H](NC(=O)[C@H](CCC(=O)O)NC(=O)[C@H](CCCNC(=N)N)NC(=O)[C@@H](NC(=O)[C@H](CCCCN)NC(=O)[C@H](Cc1ccc(O)cc1)NC(=O)[C@@H](NC(=O)[C@H](CC(=O)O)NC(=O)[C@H](CO)NC(=O)[C@H](Cc1ccccc1)NC(=O)[C@H](CCSC)NC(=O)[C@H](CCC(=O)O)NC(=O)[C@@H](N)CC(=O)O)[C@@H](C)CC)[C@@H](C)CC)C(=O)N[C@@H](C)C(=O)N[C@@H](CC(=O)O)C(=O)NCC(=O)N[C@@H](CC(C)C)C(=O)N[C@@H](CS)C(=O)N[C@@H](CC(C)C)C(=O)N[C@@H](CCC(=O)O)C(=O)N[C@H](C(=O)O)C(C)C` [TCTP11–31], the Kd runs as follows: (50 mM ammonium bicarbonate pH 9 (Fig. 4B), Bcl-xL 0.043 mM, TCTP-BH3 […], read-out: Kd) 10 to 15 µM; (50 mM ammonium bicarbonate pH 9, Bcl-xL […], TCTP-BH3 1.39 mM (Fig. 1B), read-out: dissociation constant) 12 µM.

The values are drawn from paper PMC4728560 (Scientific Reports, 2016).
